Measured logP (octanol/water) values of organic chemicals

Data: OPERA 2.9 data sets, kmansouri/OPERA on GitHub.

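OPERA's authors assembled the values from existing databases and did not measure them anew. One number stands for a compound and property, with no spread given. Method and conditions are not stated for these values. Where a salt, mixture or single isomer is drawn, the source does not say that exactly this form was tested. Some entries may be limits or estimates that an upstream database listed as plain numbers.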

logP is the log10 of the octanol-water partition coefficient; higher is more lipophilic.

compound,logP (octanol/water)
CC[C@H]1OC(=O)[C@H](C)C(=O)[C@H](C)[C@@H](O[C@@H]2O[C@H](C)C[C@H](N(C)C)[C@H]2O)[C@](C)(OC)C[C@@H](C)C(=O)[C@H](C)[C@H]2N(CCCCn3cnc(-c4cccnc4)c3)C(=O)O[C@]12C,3
CC(S)C(=O)O.N (stereo not given),1.15
CO/N=C1\CN(c2nc3c(cc2F)c(=O)c(C(=O)O)cn3C2CC2)CC1CN (stereo partly drawn),2.3
C=CCCCCCCCCC(=O)NCC(=O)O,2.2
Cc1cc2c(c(C3CCCCC3)c1)OP(O)Oc1c(cc(C)cc1C1CCCCC1)C2,7.1
CC(=O)N(O)CCCCCNC(=O)CCC(=O)N(O)CCCCCNC(=O)CCC(=O)N(O)CCCCCN,-2.2
CCN(CC)c1ccc2cc(-c3nc4cc(Cl)ccc4o3)c(=O)oc2c1,4.9
OCCCCCCCCCCCCO,3.1
Br.CCCCCCCOc1ccccc1/N=C(\[O-])OCC[N+]1(CCCCCC)CCCCC1,5.38
O=C(C=Cc1ccccc1)OCc1ccccc1,4.18
OC(Cn1ccnc1)c1ccc(Cl)cc1Cl (stereo not given),2.335
COB(OC)OC,-0.77
Oc1cc(O)ncn1,-2.8
CC(C)(C)c1ccc([I+]c2ccc(C(C)(C)C)cc2)cc1.F[P-](F)(F)(F)(F)F,1.38
Cc1ccccc1OCC1CO1 (stereo not given),2.5
CCCCCCCC/C=C/CCCCCCCC(=O)O.CCCCCCCC/C=C/CCCCCCCC(=O)O.CCCCCCCC/C=C/CCCCCCCCNCCCN,0.03
CCCCC(CC)CN(CC(CC)CCCC)CC(CC)CCCC (stereo not given),8.7
COc1ccc(CCC#N)cc1OC,0.685
CC(C)OC(=O)[C@@H]1CC2=CC(=O)CC[C@]2(C)[C@H]2CC[C@@]3(C)[C@@H](CC[C@@]34CCC(=O)O4)[C@H]12,2.82
ClCCCCCCCCCl,4.56
C=C1COC(C)(C)O1,1.6
CCOCOC1CCCCCCCCCCC1,5.4
CC(=O)OCNC(=O)c1ccccc1C(F)(F)F,1.4
NCCNCc1ccccc1,0.71
CC(O)=NC(C(=N)O)C(C)C (stereo not given),-0.61
CCCC[N+](C)(C)C.[I-],-2.6
OCC[S-].[Na+],-4.94
CC[N+](CC)(CC(=O)Nc1c(C)cccc1C)Cc1ccccc1.O=C([O-])c1ccccc1,2.131
CC=C(C(=CC)c1ccc(O)cc1)c1ccc(O)cc1,5.9
O=C1Cc2cc(CCCl)c(Cl)cc2N1,2.93
CC[C@@]12CCC3=C(CCc4cc(OC)ccc43)[C@H]1CCC2=O,4.88
C=CC1COC(CC(C)C)O1 (stereo not given),2.5
CC(CO)Oc1ccccc1 (stereo not given),1.52
CCOC(F)(C(F)(F)C(F)(F)C(F)(F)F)C(F)(C(F)(F)F)C(F)(F)F (stereo not given),5.875
CC(=O)OC1CCCCC1C (stereo not given),2.75
CCNc1ccc(C)cc1,2.32
CCN(CC)c1ccc2cc3c(oc2c1)c(C#N)c(=N)n1c2ccccc2nc31,5.5
O=[N+]([O-])c1cc(/N=N/c2ccc(/N=N/c3ccc(S(=O)(=O)[O-])cc3)c(O)c2[O-])c([O-])c([N+](=O)[O-])c1.[Cu+2].[Na+],-3.664
C=CCCCCCCCC(=O)N(C)C,3.17
COC(=O)COc1nc(F)c(Cl)c(N)c1Cl,2.22
O=C(OCCCc1ccccc1)c1ccccc1,4.4
O=Cc1cccc(Cl)c1Cl,2.6
Cc1ccc(/N=N/c2c(O)c(C(=O)[O-])cc3ccccc23)c(S(=O)(=O)[O-])c1.[Sr+2],-0.61
CCOC(=O)CC(C)CC(C)(C)C (stereo not given),4.59
Nc1ccc(/N=N/c2ccc(/N=N/c3ccc(/N=N/c4c(S(=O)(=O)[O-])cc5cc(NC(=O)c6ccccc6)ccc5c4O)c4ccc(S(=O)(=O)[O-])cc34)c3ccc(S(=O)(=O)[O-])cc23)cc1S(=O)(=O)[O-].[Na+].[Na+].[Na+].[Na+],-2.266
CC(C)(C)C1=CC(=O)C(C(C)(C)C)=CC1=O,4.81
CCOC(=O)C(Cc1cc(I)c(Oc2ccc(OC)cc2)c(I)c1)NC(C)=O (stereo not given),3.6

Extract of 5 entries:

compound,logP (octanol/water)
CC(C)(C)C1=CC(=O)C(C(C)(C)C)=CC1=O,4.81
CCCC[N+](C)(C)C.[I-],-2.6
CC[C@H]1OC(=O)[C@H](C)C(=O)[C@H](C)[C@@H](O[C@@H]2O[C@H](C)C[C@H](N(C)C)[C@H]2O)[C@](C)(OC)C[C@@H](C)C(=O)[C@H](C)[C@H]2N(CCCCn3cnc(-c4cccnc4)c3)C(=O)O[C@]12C,3
COC(=O)COc1nc(F)c(Cl)c(N)c1Cl,2.22
CC(S)C(=O)O.N (stereo not given),1.15